# scFv variants of Ab-14 (heavy chain) against a SARS-CoV-2 spike peptide

From the AlphaSeq antibody data of Li et al. 2023 (doi:10.1038/s41467-023-39022-2), copy in the FLAb collection.

All variants were tested on one target, the spike HR2 peptide PDVDLGDISGINAS (SARS-CoV-2).

Ab-14 is the parent antibody, in scFv form: VH, then the linker GGGGSGGGGSGGGGS, then VL. The light chain is unchanged in all variants.
VH: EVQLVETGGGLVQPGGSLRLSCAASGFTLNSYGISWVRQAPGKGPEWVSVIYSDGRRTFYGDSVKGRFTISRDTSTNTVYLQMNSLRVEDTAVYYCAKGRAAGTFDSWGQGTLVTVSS
VL: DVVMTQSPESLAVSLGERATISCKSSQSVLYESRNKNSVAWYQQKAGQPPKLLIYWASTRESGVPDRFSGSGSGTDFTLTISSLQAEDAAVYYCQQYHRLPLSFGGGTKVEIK

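The starting antibody came from a phage panning campaign against this peptide. Designed CDR sequences, proposed from the first random library and measured here. Group labels follow the data file (Ctrl: baseline library sampled from a position-specific scoring matrix, with some repeated check sequences; Rand: our label for a block that the file lists under HC and that is probably the random mutants of the ten best first-round binders; En: ensemble of fine-tuned language models; HC: hill climbing; Gen: genetic algorithm; Gibbs: Gibbs sampling; a sequence that several methods proposed may carry one label only). The scFvs were displayed on barcoded MATa yeast, the peptide on MATalpha yeast. Mating (16 h, 30 °C) was followed by selection of diploids and sequencing of their barcodes. Scores were corrected for input abundance and mapped to Kd with protein pairs of known affinity run in the same pool. Mating was done six times.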

Each variant is given by its three heavy chain CDRs, as the data file delimits them; those of the parent are GFTLNSYGIS, VIYSDGRRTFYGDSVK, GRAAGTFDS. Variants here have more than six changes. Values are log10 of the apparent Kd in nM; lower means stronger binding. Averages over replicates are reported, and they cover detected replicates only. An entry "nd" has no value in the source: the pair was not observed among the diploids in any replicate. This suggests poor binding but is not conclusive.

- GFQLNEYGIS / VIYADGMRSEYQDSVK / GSNSSSFDV [En_Gibbs] = 2.01 (1 of 6 replicates)
- GFTLNSYFIS / VKYSDGRGTPYDDSVK / GQLAGTGDS [Rand] = nd (0 of 6 replicates)
- GFDLNEYGIS / VIYADGVRKAYADSVK / GNVAGTFDL [En_Gen] = -0.97 (6 of 6 replicates)
- GFNLDEYGIS / VIYADGRRTFYQDSVK / GETAGTFDF [En_HC] = -0.37 (6 of 6 replicates)
- GFDLNEYGIS / VIYADGVRTAYSDSVK / GNQAGTFDM [En_Gen] = -0.46 (6 of 6 replicates)
- GFSLDEYGIS / VIYADGARAFYTNKVK / GVEVGDLGT [En_Gibbs] = 2.81 (1 of 6 replicates)
- GFDLDEYGIS / VIYADGKRTFYQDSVK / GQAAGTFDQ [En_HC] = -0.10 (6 of 6 replicates)
- GFDLNEYGIS / VIYADGQRKAYADSVK / GEVAGTFDV [En_Gen] = 0.32 (6 of 6 replicates)
- GFNLEDYGIS / VIYADGKRTFYVDSVK / GKVAGTFDV [En_HC] = -0.63 (6 of 6 replicates)
- GFDLNEYGIS / VIYADGRRTFYADSVK / GSVAGTFIQ [En_HC] = 0.54 (5 of 6 replicates)
- GFDLNEYGIS / VIYADGSRTAYADDVK / GGNAGTFDV [En_Gen] = 0.34 (6 of 6 replicates)
- GFDLDEYGIS / VIYADGVRTAYADSVK / GEVAGTFDT [En_Gen] = -0.39 (6 of 6 replicates)
- GFDLNEYGIS / VIYADGMRTAYADKVK / GENAGTFDQ [En_Gen] = -0.32 (3 of 6 replicates)
- GFDLNEYGIS / VIYADGKRTFYADSVK / GNQAGTFDQ [En_HC] = -0.42 (6 of 6 replicates)
- GFDLDEYGIS / VIYADGMRVSYDQNVK / GRGGVSFIA [En_Gibbs] = nd (0 of 6 replicates)
- GFDLDEYGIS / VIYADGRRTFYVDSVK / GNVAGTFDV [En_HC] = 0.75 (6 of 6 replicates)
- GFDLNEYGIS / VIYADGRRTAYADSVK / GNTAGTFDQ [En_Gen] = -0.36 (6 of 6 replicates)
- GFDLNEYGIS / VIYADGVRTAYSDSVK / GTNAGTFDM [En_Gen] = -0.72 (6 of 6 replicates)
- GYDLVEYGIS / VIYADGQRTMYADTVK / GHHGGIIDV [En_Gibbs] = nd (0 of 6 replicates)
- GFDLNEYGIS / VIYADGRRTAYKDSVK / GEVAGTFDV [En_HC] = -0.56 (6 of 6 replicates)
- GFDLEDYGIS / VIYADGRRTAYIDSVK / GEAAGTFDT [En_HC] = 0.28 (6 of 6 replicates)
- GFDLDEYGIS / VIYADGRRTFYQDSVK / GTNAGTFDQ [En_HC] = -0.15 (6 of 6 replicates)
- GFDINEYGIS / VIYADGRRTAYADSVK / GEEAGTFDV [En_HC] = -0.29 (6 of 6 replicates)
- GDVLDEYGIS / VIYADGRRTFYVQDVK / GGKAGSLSV [En_Gibbs] = nd (0 of 6 replicates)
- GFDLDEYGIS / VIYADGMRTAYIDSVK / GETAGTFDV [En_Gen] = -0.71 (6 of 6 replicates)
- GFDLNEYGIS / VIYADGRRTAYADSVK / GQLAGTFDI [En_HC] = -0.38 (6 of 6 replicates)
- GFGLDEYGIS / VIYADGMRVVYTQDVK / GLYTFVKGI [En_Gibbs] = nd (0 of 6 replicates)
- GHDINEYGIS / VIYADGKRSQYAQDVK / GQNVGQGTT [En_Gibbs] = nd (0 of 6 replicates)
- GFDLNEYGIS / VIYADGVRTAYAESVK / GENAGTFDV [En_Gen] = nd (0 of 6 replicates)
- GFDLNEYGIS / VIYADGMRTAYSDSVK / GQNAGTFDV [En_Gen] = -0.51 (6 of 6 replicates)
- GFDLNSQGIS / VIYSDGWRTFYDDQVK / GRAAQTFDT [Ctrl] = nd (0 of 6 replicates)
- GFDLNEYGIS / VIYADGLRTSYADSVK / GQNAGTFDI [En_HC] = -1.52 (6 of 6 replicates)
- GFDIDEYGIS / VIYADGMRQALINAVK / GTLSGTFIA [En_Gibbs] = 0.19 (6 of 6 replicates)
- GFDINEYGVS / VIYADGMRTAYTDSVK / GEGQWIALI [En_Gibbs] = nd (0 of 6 replicates)
- GFDLNEYGIS / VIYADGQRTAYADSVK / GQVAGTFDS [En_HC] = -0.32 (6 of 6 replicates)
- GFDLNEYGIS / VIYADGRRTAYSDSVK / GEVAGTFDT [En_Gen] = -0.37 (6 of 6 replicates)
- GFDLNEYGIS / VIYADGVRTAYSDSVK / GNVAGTFDT [En_Gen] = 0.10 (6 of 6 replicates)
- GFDLNEYGIS / VIYADGVRSFYADSVK / GQLAGTFDS [En_HC] = -0.58 (6 of 6 replicates)
- GFDLNEYGIS / VIYADGKRTSYADSVK / GENAGTFDV [En_Gen] = 0.10 (6 of 6 replicates)
- GKHLDEYGIS / VIYADGQRVFYSDTVK / GIQGFTVDV [En_Gibbs] = nd (0 of 6 replicates)
- GFDLNEYGIS / VIYADGMRTQYIDSVK / GNIAGTFDV [En_HC] = -0.41 (6 of 6 replicates)
- GFDLNEYGIS / VIYADGMRTAYTDSVK / GEVAGTFDA [En_HC] = -0.36 (6 of 6 replicates)
- GFDLDEYGIS / VIYADGQRTYYADSVK / GQNAGTFDV [En_Gen] = 0.41 (6 of 6 replicates)
- GFDLNEYGIS / VIYADGSRTAYADSVK / GNVAGTFDI [En_Gen] = -0.44 (6 of 6 replicates)
- GFDLDEYGIS / VIYADGQRTAYADSVK / GNVAGTFDV [En_Gen] = -0.33 (6 of 6 replicates)

Repeated from above, the 8 best binders with a signal in all replicates:

* GFDLNEYGIS / VIYADGLRTSYADSVK / GQNAGTFDI [En_HC]: -1.52 (6 of 6 replicates)
* GFDLNEYGIS / VIYADGVRKAYADSVK / GNVAGTFDL [En_Gen]: -0.97 (6 of 6 replicates)
* GFDLNEYGIS / VIYADGVRTAYSDSVK / GTNAGTFDM [En_Gen]: -0.72 (6 of 6 replicates)
* GFDLDEYGIS / VIYADGMRTAYIDSVK / GETAGTFDV [En_Gen]: -0.71 (6 of 6 replicates)
* GFNLEDYGIS / VIYADGKRTFYVDSVK / GKVAGTFDV [En_HC]: -0.63 (6 of 6 replicates)
* GFDLNEYGIS / VIYADGVRSFYADSVK / GQLAGTFDS [En_HC]: -0.58 (6 of 6 replicates)
* GFDLNEYGIS / VIYADGRRTAYKDSVK / GEVAGTFDV [En_HC]: -0.56 (6 of 6 replicates)
* GFDLNEYGIS / VIYADGMRTAYSDSVK / GQNAGTFDV [En_Gen]: -0.51 (6 of 6 replicates)

In the paper, a design with two or fewer of six values counts as a poor binder. Of ten entries with the parent sequence, four were seen in most replicates (averages 0.34 to 2.37), three in one and three in none, so single entries are noisy. A sequence measured in both rounds can read differently, since the two assays cover different ranges. Empty control strains, which show no peptide, gave a signal in 1% of pairings with all heavy chain designs; the median was 2.08 and 95% of these signals were weaker than 0.84. No background was subtracted.